Results: PMC5518866 (British Journal of Cancer, 2017)

What was measured:
[1] = Plasma pharmacokinetics, 3 days on/4 days off schedule; type: in vivo, human
[2] = tested on: patients with advanced malignancies; test: Phase I, 3 days on/4 days off schedule: safety; type: in vivo, human
[3] = Formulation bridging and food-effect pharmacokinetics; type: in vivo, human; settings: for AUC(0–24), geometric mean: seven patients
[4] = ref Siemeister et al, 2012, cited from earlier work
[5] = Plasma pharmacokinetics, 4 weeks on/2 weeks off schedule; design: species or system human; settings: in vivo
[6] = ref Siemeister et al, 2012; cited from earlier work
[7] = tested on: patients with advanced malignancies; test: Phase I, 4 weeks on/2 weeks off schedule: safety; design: species or system human; settings: in vivo
[8] = RP2D 5 mg BID, cycle 1, day 10, expansion cohorts
[9] = Cohort 6 9.6 mg BID bridging (n=6)
[10] = SCLC food-effect cohort 5 mg BID (n=8)
[11] = Tumour mutation cohort 5 mg BID (n=6)

Substance: roniciclib
- AUC(0–12), geometric mean, multiple-dose [1, 8]: 662 µg·h/L
- Cmax, geometric mean, multiple-dose [1, 8]: 98.6 ng/mL
- Dose proportionality of exposure ([1]; dose range 0.3–10 mg, single-dose and multiple-dose): generally dose-proportional increase in exposure
- Accumulation after BID dosing ([1]; expansion cohorts): approximately two-fold
- Half-life ([1]; expansion cohorts, on average): 8.5 h
- Median tmax ([1]; oral, solution and tablet formulations): ~1 h
- Exposure with monotherapy in patients below simulated efficacious exposure in mice ([1]; unpublished data): ~50%
- Dose-limiting toxicities (DLTs) ([2]; 5 mg BID, tablet formulation): no DLTs were reported
- Maximum tolerated dose (MTD), initial determination ([2]; BID (5 mg in the morning, 10 mg in the evening), solid tumours): 5/10
- MTD, reassessed after thromboembolic events in 5/10 mg expansion phase ([2]; BID, solid tumours): 5 mg
- Anorexia, treatment-related AE grade 3 ([2]; Cohort 4 2.4 mg BID (n=3)): 1 (33.3) n (%)
- Fatigue, treatment-related AE grade 3 [2, 9]: 1 (16.7) n (%)
- Hyponatraemia, treatment-related AE grade 3 [2, 9]: 1 (16.7) n (%)
- Nausea, treatment-related AE grade 3 [2, 9]: 1 (16.7) n (%)
- Fatigue, treatment-related AE grade 3 ([2]; Cohort 7 5 mg BID (n=4)): 1 (25.0) n (%)
- Peripheral ischaemia, treatment-related AE grade 4 ([2]; Cohort 8 5/10 mg BID (n=7)): 1 (14.3) n (%)
- Anorexia, treatment-related AE grade 3 ([2]; Cohort 9 10 mg BID (n=7)): 1 (14.3) n (%)
- Hypotension, treatment-related AE grade 3 ([2]; Cohort 9 10 mg BID (n=7)): 1 (14.3) n (%)
- Hypophosphatemia, treatment-related AE grade 3 ([2]; Cohort L2 5 mg BID (n=4)): 1 (25.0) n (%)
- Fatigue, treatment-related AE grade 3 ([2]; Ovarian cohort 5 mg BID (n=22)): 3 (13.6) n (%)
- Hypophosphatemia, treatment-related AE grade 3 ([2]; Ovarian cohort 5 mg BID (n=22)): 1 (4.5) n (%)
- Hypotension, treatment-related AE grade 3 ([2]; Ovarian cohort 5 mg BID (n=22)): 1 (4.5) n (%)
- Nausea, treatment-related AE grade 3 ([2]; Ovarian cohort 5 mg BID (n=22)): 1 (4.5) n (%)
- Vomiting, treatment-related AE grade 3 ([2]; Ovarian cohort 5 mg BID (n=22)): 2 (9.1) n (%)
- Thromboembolic event, treatment-related AE grade 3 ([2]; Ovarian cohort 5/10 mg BID (n=3)): 2 (66.7) n (%)
- Fatigue, treatment-related AE grade 3 ([2]; SCLC cohort 5 mg BID (n=23)): 1 (4.3) n (%)
- Hyponatraemia, treatment-related AE grade 3 ([2]; SCLC cohort 5 mg BID (n=23)): 1 (4.3) n (%)
- Hypophosphatemia, treatment-related AE grade 3 ([2]; SCLC cohort 5 mg BID (n=23)): 1 (4.3) n (%)
- Hypotension, treatment-related AE grade 3 ([2]; SCLC cohort 5 mg BID (n=23)): 2 (8.7) n (%)
- Nausea, treatment-related AE grade 3 ([2]; SCLC cohort 5 mg BID (n=23)): 2 (8.7) n (%)
- Thromboembolic event, treatment-related AE grade 3 ([2]; SCLC cohort 5 mg BID (n=23)): 1 (4.3) n (%)
- Thromboembolic event, treatment-related AE grade 4 ([2]; SCLC cohort 5/10 mg BID (n=2)): 1 (50.0) n (%)
- Anorexia, treatment-related AE grade 3 [2, 10]: 1 (12.5) n (%)
- Hyponatraemia, treatment-related AE grade 3 [2, 10]: 1 (12.5) n (%)
- Nausea, treatment-related AE grade 3 [2, 10]: 1 (12.5) n (%)
- Vomiting, treatment-related AE grade 3 [2, 10]: 1 (12.5) n (%)
- Anorexia, treatment-related AE grade 3 ([2]; Total (N=111)): 4 (3.6) n (%)
- Fatigue, treatment-related AE grade 3 ([2]; Total (N=111)): 8 (7.2) n (%)
- Hyponatraemia, treatment-related AE grade 3 ([2]; Total (N=111)): 3 (2.7) n (%)
- Hypophosphatemia, treatment-related AE grade 3 ([2]; Total (N=111)): 3 (2.7) n (%)
- Hypotension, treatment-related AE grade 3 ([2]; Total (N=111)): 4 (3.6) n (%)
- Nausea, treatment-related AE grade 3 ([2]; Total (N=111)): 6 (5.4) n (%)
- Peripheral ischaemia, treatment-related AE grade 4 ([2]; Total (N=111)): 1 (0.9) n (%)
- Thromboembolic event, treatment-related AE grade 3 ([2]; Total (N=111)): 3 (2.7) n (%)
- Thromboembolic event, treatment-related AE grade 4 ([2]; Total (N=111)): 1 (0.9) n (%)
- Vomiting, treatment-related AE grade 3 ([2]; Total (N=111)): 3 (2.7) n (%)
- Anorexia, treatment-related AE grade 3 [2, 11]: 1 (16.7) n (%)
- Fatigue, treatment-related AE grade 3 [2, 11]: 2 (33.3) n (%)
- Nausea, treatment-related AE grade 3 [2, 11]: 1 (16.7) n (%)
- Abnormal electrocardiogram patterns ([2]; across both studies): uncommon
- Anorexia, roniciclib-related TEAE grade 3 ([2]; all cohorts): 3.6%
- Diarrhoea, roniciclib-related TEAE any grade ([2]; all cohorts): 63.1%
- Fatigue, roniciclib-related TEAE any grade ([2]; all cohorts): 65.8%
- Fatigue, roniciclib-related TEAE grade 3 ([2]; all cohorts): 7.2%
- Hypotension, roniciclib-related TEAE grade 3 ([2]; all cohorts): 3.6%
- Nausea, roniciclib-related TEAE any grade ([2]; all cohorts): 76.6%
- Nausea, roniciclib-related TEAE grade 3 ([2]; all cohorts): 5.4%
- Patients with an AE of grade 3 ([2]; all cohorts): 42.3%
- Patients with an AE of grade 3, 4 or 5 ([2]; all cohorts): 59.5%
- Patients with an AE of grade 4 ([2]; all cohorts): 5.4%
- Patients with an AE of grade 5 ([2]; all cohorts): 11.7%
- Patients with at least one dose modification (reduction or interruption) ([2]; all cohorts): 63.1%
- Patients with dose interruptions or delays ([2]; all cohorts): 59.5%
- Patients with dose reductions ([2]; all cohorts): 20.7%
- Roniciclib-related TEAEs of any grade, patients ([2]; all cohorts): 95.5%
- Vomiting, roniciclib-related TEAE any grade ([2]; all cohorts): 57.7%
- Deaths attributed to the study drug ([2]; in vivo): None of these deaths was attributed to the study drug
- Effect on neutrophils ([2]; in vivo): no marked effect on neutrophils was observed
- Grade 5 event: death not specified ([2]; in vivo): 2.7%
- Patients who died between first day of treatment and 30 days post treatment ([2]; in vivo): Eleven
- Patients with roniciclib-related serious AEs ([2]; in vivo): Eleven
- Relevant treatment-emergent changes in coagulation parameters (factor VIII, D-dimers, von Willebrand factor antigen) ([2]; in vivo): not observed
- Roniciclib-related serious AEs: thromboembolic events and peripheral ischaemia ([2]; in vivo): 4.5%
- Serious TEAE: other general disorders ([2]; in vivo): 4.5%
- Serious TEAE: venous and arterial thromboembolic events ([2]; including a case of peripheral ischaemia): 7.2%
- Dose-limiting toxicities (DLTs) ([2]; lymphoid malignancy dose-escalation cohorts, doses up to 5 mg BID): No DLTs were reported
- Dose-limiting toxicities (DLTs), patients ([2]; solid-tumour dose-escalation cohorts): five
- Number of roniciclib-related grade 4 TEAEs ([2]; thromboembolic event and peripheral ischaemia): two
- Recommended phase II dose (RP2D) ([2]; twice daily (BID), solid tumours): 5 mg
- AUC(0–24), geometric mean ([3]; 5 mg tablets following a high-fat, high-calorie meal): 318 ng·h/mL
- AUC(0–24), geometric mean ([3]; 5 mg tablets under fasting conditions): 511 ng·h/mL
- Decrease in exposure with food ([3]; 5 mg tablets, AUC(0–24) fed vs fasting): 38%
- Cmax, geometric mean ([3]; 5 mg tablets, fasting): 71.5 ng/mL
- Cmax, geometric mean ([3]; 5 mg tablets, fed): 29.7 ng/mL
- AUC (from time 0 to the last data point), geometric mean ([3]; 9.6 mg as solution formulation): 575 ng·h/mL
- AUC (from time 0 to the last data point), geometric mean ([3]; 10 mg as tablets): 815 ng·h/mL
- Bioavailability ([4]; mice): good bioavailability
- Bioavailability ([4]; preclinical, after oral application): ~50%
- Volume of distribution ([4]; preclinical): high volume of distribution
- PK parameters in 4 weeks on/2 weeks off vs 3 days on/4 days off schedule [5]: generally comparable
- Solubility [6]: high solubility
- Grade 4 or 5 TEAEs [7]: No grade 4 or 5 TEAEs were reported

Read-outs that look alike come from different tables or passages of the source.
